Where “and” joins values, the source holds several entries; their conditions need not be identical. Equal values may be shown once.
Key:
[1] = system: ET-1-induced pressor response; assay: Test C: inhibition of ET-1-induced pressor response in conscious beagle dogs; type: in vivo
Experimental: Inhibition of ET-1-induced Pressor Response in Conscious Beagle Dogs
Studies were performed in surgically prepared conscious beagle dogs (13-17 kg) which were well adjusted to the laboratory environment. Surgical preparation was performed under recovery anaesthesia to insert an indwelling aortic catheter with external access between the scapulae and protruding subcutaneous ECG studs, positioned for the recording of lead 11 electrocardiograms. During studies dogs were placed, unrestrained, in “Pavlov” type slings. The aortic catheter was connected to a pressure transducer for the measurement of systemic arterial pressure and ECG studs, via patient cables, to a bio-amplifier for the recording of electrocardiograms. ET-1 was administered as a 15 min infusion (25 pmoles/kg/min) via a temporary catheter inserted into the saphenous vein. Test compound or placebo was administered by oral gavage (0.5 or 2.0 mg/kg) at 1 and 24 hours prior to the infusion of ET-1. Individual studies investigated no more than a single dose of test compound or placebo at any one time. Systemic arterial pressure and electrocardiograms were recorded for one hour prior to and one hour after the start of the infusion of ET-1. Test compounds were evaluated by comparing the effects of placebo or test compound on the magnitude of pressor response elicited by ET-1.

[2] = system: dog renal artery strips (ET-1-induced contraction); assay: Test A: inhibition of contraction induced by ET-1 in dog renal artery strips to generate Kb values; type: cell-based, beagle dogs; conditions: Canis lupus familiaris, 1.25 h, read-out: Apparent Kb
Source text: Inhibition of Contraction Induced by ET-1 in Dog Renal Artery Strips to Generate Kb Values
A Kb value is a measure of functional activity, and this is taken to be the free plasma concentration of a test compound required to provide efficacy.
Renal arteries from beagle dogs (body weight 9-15 kg) were cut into spirals and divided into 5 mm long strips. The side of each strip that was adjacent to the lumen of the vessel was gently rubbed to remove the endothelium. […] The tension generated by each strip was recorded isometrically. After incubating the tissues with test compound for 75 minutes, cumulative concentration response curves were constructed to ET-1 in the presence of 10 μM Bestatin, 10 μM Captopril, 10 μM Thiorphan, 50 μM indomethacin and 0.001% BSA. Only a single ET-1 curve was constructed in each tissue and tension increases expressed as a percentage of the response to 120mM KCl determined before the addition of the test compound. […] This is the ratio of the EC50 in the presence of the test compound divided by the EC50 in its absence. The DR is then put into the following equation:
apparent pKb=log(DR−1)−log[B] (where B=molar concentration of test compound)

[3] = Canis lupus familiaris, po, read-out: % inhibition of ET-1-induced pressor response

## COc1ccccc1Oc1c(NS(=O)(=O)C=Cc2ccccc2)nc(-c2ncccn2)nc1OC [COMPOUND Y, N-[6-methoxy-5-(2-methoxyphenoxy)-2-(2-pyrimidinyl)-4-pyrimidinyl]-2-phenylethensulphonamide]
[1]; [3]
  inhibition at 0.5 mg/kg: 57%
  inhibition at 2 mg/kg: 44%
[1]; dog, in vivo
  Change in arterial pressure elicited by ET-1: 7 ΔmmHg and 13 ΔmmHg
[2]
  Kb: 58 nM
